AlphaSeq binding of Ab-14 heavy chain variants to a spike HR2 peptide

Reference: Engelhart et al. 2022, doi:10.1038/s41597-022-01779-4. File: FLAb, binding data.

Target peptide (SARS-CoV-2 spike, HR2 region): PDVDLGDISGINAS

Ab-14 is the parent antibody, in scFv form: VH, then a 15-residue (Gly4Ser)3 linker, then VL. The light chain is unchanged in all variants.
VH: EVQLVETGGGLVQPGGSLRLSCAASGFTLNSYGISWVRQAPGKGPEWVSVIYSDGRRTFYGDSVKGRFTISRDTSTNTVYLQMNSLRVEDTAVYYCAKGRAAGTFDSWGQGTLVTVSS
VL: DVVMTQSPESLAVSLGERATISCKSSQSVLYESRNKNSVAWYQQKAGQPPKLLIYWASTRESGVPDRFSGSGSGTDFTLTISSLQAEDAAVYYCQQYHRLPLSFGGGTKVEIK

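The library (AAYL49) carries one to three amino acid substitutions per variant, with no insertions or deletions. The scFvs were displayed on barcoded MATa yeast, the peptide on MATalpha yeast. The frequency of each diploid, read from paired DNA barcodes, reflects how well the two displayed proteins bind. Each replicate has its own calibration line, from reference interactions of the BCL2 family. Mating was done three times.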

The parent's heavy chain CDRs are GFTLNSYGIS, VIYSDGRRTFYGDSVK, GRAAGTFDS; each variant's own CDRs replace them letter for letter. This list gathers variants with a substitution at S35 (VH, numbered from residue 1). Values are apparent Kd, the geometric mean of the replicates that gave a signal; lower means stronger binding. "nd" means that the variant was in the library but no mating with the target was seen in any replicate; the authors take this as a sign of poor binding, and no number exists. Empty control strains, which show no peptide, gave a signal in 15% of pairings with library AAYL49; the median was 11 µM and 95% of these signals were weaker than 680 nM. No background was subtracted.

* GFTLNSYGIQ | VIYSDGRRTFYWDSVK | GVAAGTFDS: 17 µM (2 of 3 replicates)
* GFTLNSYGIF | QIYSDGRRTFYGDSVK | GRAAGYFDS: nd (0 of 3 replicates)
* GFTLNSYGIM | VIYSDGRRTFYADSVK | GRAAPTFDS: 57 µM (2 of 3 replicates)
* GFTLNSYGIK | VEYSDGRRTFPGDSVK | GRAAGTFDS: 2.1 µM (1 of 3 replicates)
* GFTLNSYGIP | VIYSDGRRTFYDDSVK | GRAAGTFDS: nd (0 of 3 replicates)
* GFTGNSYGIL | VIYMDGRRTFYGDSVK | GRAAGTFDS: 17 µM (1 of 3 replicates)
* GFTLNSYGIN | VIYSDGRRTFSGKSVK | GRAAGTFDS: 110 µM (1 of 3 replicates)
* GFVLNSYGIN | VIYVDGRRTFYGDSVK | GRAAGTFDS: nd (0 of 3 replicates)
* GFTLNSYGIW | VIYSDGRRTFYGDSVK | GKAAGTKDS: nd (0 of 3 replicates)
* GFTLNSYGMQ | VIYSDGRLTFYGDSVK | GRAAGTFDS: nd (0 of 3 replicates)
* GFTLRSYGIN | VIYSDGRRTFYGDSVK | GRAAKTFDS: nd (0 of 3 replicates)
* GFTLNSYGIY | VIYSDGRRTFYGHSVK | GRAAGTFQS: nd (0 of 3 replicates)
* GFWLNSYGIY | VIYSTGRRTFYGDSVK | GRAAGTFDS: 4.1 µM (1 of 3 replicates)
* GFTLNQYGIF | VIYSDGRRTFYKDSVK | GRAAGTFDS: nd (0 of 3 replicates)
* GFTLNSYGIY | VIYSDGRRTNYGDKVK | GRAAGTFDS: nd (0 of 3 replicates)
* FFILNSYGIN | VIYSDGRRTFYGDSVK | GRAAGTFDS: 6.0 µM (1 of 3 replicates)
* GFLLNSYGIF | VIYSDGRRTFYGDSVK | GRAAGTKDS: 17 µM (2 of 3 replicates)
* GFTLNSYGIV | VIYSDGRRTFYGDFVK | GRPAGTFDS: 2.0 mM (1 of 3 replicates)
* GFTLNSYVIQ | VIYSDGRRTFYGDHVK | GRAAGTFDS: nd (0 of 3 replicates)
* GFTANSYGIM | VIYSDGGRTFYGDSVK | GRAAGTFDS: 500 nM (1 of 3 replicates)
* GFTLNSYGIP | VIYSDGMRPFYGDSVK | GRAAGTFDS: nd (0 of 3 replicates)
* GFTLNSYGIN | VFYSDGRRTFYGDSVK | GRAAWTFDS: nd (0 of 3 replicates)
* GFTLNSYGIY | VIYSDGRRGFYGDSVK | GRAAGLFDS: 7.3 µM (2 of 3 replicates)
* GFTLNSYGIE | VIYSDGRRTFYGDWVK | GRAAGTADS: nd (0 of 3 replicates)
* GFTLNSYGIQ | VIYSDGRRTHYGDSVK | GNAAGTFDS: nd (0 of 3 replicates)
* GFTLNSYGIF | VIQSDDRRTFYGDSVK | GRAAGTFDS: 140 µM (2 of 3 replicates)
* GFTLNSYGIK | VIYSDGRRTFYADSVK | GNAAGTFDS: 390 nM (1 of 3 replicates)
* GFTLNHAGIC | VIYSDGRRTFYGDSVK | GRAAGTFDS: nd (0 of 3 replicates)
* GFTLNSYGIP | VIYSDGRRTFYGDSVK | GRAAGTIDA: nd (0 of 3 replicates)
* GFTLNQYGIE | VIYSDGRRTFYGDSVK | GRAAGTFDS: nd (0 of 3 replicates)
* GFTLNSYGIQ | VIYSDARRTFYGDSVK | GRAAGTFDS: nd (0 of 3 replicates)
* GFTLNSYGIL | VIYSDDRRTFYGDSKK | GRAAGTFDS: nd (0 of 3 replicates)
* GFTLNSYGRV | VYYSDGRRTFYGDSVK | GRAAGTFDS: nd (0 of 3 replicates)
* GFTLNSYGTN | VIYSDGRRTFYGDSVK | GDAAGTFDS: 190 µM (1 of 3 replicates)
* GFTLNSYGIV | VIYSDGQRTFYGDSIK | GRAAGTFDS: 960 nM (1 of 3 replicates)
* GFTLNSYGID | VIYSQGRRTFYGDSVK | DRAAGTFDS: nd (0 of 3 replicates)
* GQTLNSYGII | VIYSDGRRTYYGDSVK | GRAAGTFDS: nd (0 of 3 replicates)
* GFTLNSYGIL | VIYSDGRRTFYGDSVK | SRAAGTFDS: 8.8 µM (1 of 3 replicates)
* GFTLNSYGIL | VIYSDGRRTFYGCSVK | GRAAKTFDS: nd (0 of 3 replicates)
* GFTLNSYEIT | VIYSDGRRTFYGDSVK | GRADGTFDS: nd (0 of 3 replicates)
* GFTLNSYGIN | VIYSEGRRTFYGDSVK | GRAAGSFDS: nd (0 of 3 replicates)
* GFTNNSYGIM | VIYSDGRRTFYGDSFK | GRAAGTFDS: nd (0 of 3 replicates)
* GFTLNSYGIQ | VIYSDGIRTFYWDSVK | GRAAGTFDS: nd (0 of 3 replicates)
* GFTINSYGII | VIYSDGFRTFYGDSVK | GRAAGTFDS: 310 µM (1 of 3 replicates)
* GFTLNSYGIF | VIYSDGRRTFYGDSAK | GRAANTFDS: nd (0 of 3 replicates)
* GFTLNSFGIM | VIYSDGRRTFYGDSVK | HRAAGTFDS: nd (0 of 3 replicates)
* GFTLNSYGII | VIYSDGRRTFYGDSVK | GRAACTFDS: 5.4 µM (1 of 3 replicates)